Reference: patent publication US6080772A, “Thiazole compounds and methods of modulating signal transduction” (Sugen, Inc., priority 1997, dated 2000)

What was measured:
[1] = tested on: primary adipocytes; experiment: Primary adipocyte glucose uptake assay (14C glucose); settings: test compound 50 mM without insulin, compared to samples containing only insulin (final concentration=100 μm)
[2] = tested on: insulin receptor (IR); experiment: Phosphotyrosine enzyme linked immunosorbent assay: pTyr on insulin receptor in NIH3T3 cells over-expressing human IR (H25 cells)

| Molecule | response in the primary adipocyte glucose uptake assay compared with the insulin control [1] | one point determination, effect on PTYR ([2]; Table II, at 100 μm) | EC50 ([2]; read-out: ACTIVITY EC50, Table III, concentration that produces a 50% increase in the content of phosphotyrosine over the control) [µM] |
| --- | --- | --- | --- |
| 5-Chloro-1-isopropyl-2-[(5-nitrothiazol-2-l)mercapto]benzimidazole | did not give a response greater than or equal to the insulin control | no effect |  |
| O=[N+]([O-])c1ccc(Cc2nnc(Sc3ncc([N+](=O)[O-])s3)s2)c([N+](=O)[O-])c1 |  |  | 94 |
